Values of other authors, collected in paper PMC12415477, “Electrostatic interactions influence diazabicyclooctane inhibitor potency against OXA-48-like β-lactamases” (RSC Medicinal Chemistry, 2025).
pKi: −log10 of the molar value.

Sequences of proteins named here, by UniProt entry; tags and fusion partners are left off. Residues count along the entry.
UniProt Q6XEC0, 23-265 limits assumed: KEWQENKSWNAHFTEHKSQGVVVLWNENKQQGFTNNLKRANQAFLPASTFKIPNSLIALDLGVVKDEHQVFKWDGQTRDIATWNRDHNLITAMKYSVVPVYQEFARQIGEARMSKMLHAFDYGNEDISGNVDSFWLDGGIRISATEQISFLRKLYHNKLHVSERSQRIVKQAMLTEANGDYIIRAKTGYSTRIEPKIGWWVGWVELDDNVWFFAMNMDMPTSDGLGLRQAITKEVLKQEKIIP

Target: T1, OXA-48 (Klebsiella pneumoniae, UniProt Q6XEC0)
T1 construct: pOPINF-OXA-48^(23-265) (previously cloned as described in Cahill et al); hexahistidine tag with 3C protease site (pOPINF) (N, cleaved yes); made in house; host or cells: E. coli BL21-DE3
Conditions: read-out: Ki against OXA-48; cited from earlier work

O=C(NNC(=O)[C@@H]1CC[C@@H]2CN1C(=O)N2OS(=O)(=O)O)[C@@H]1CCCNC1 [zidebactam]
pKi: < 3.10
